# Entries after “also recorded” stand apart in the source; their conditions may differ.
# Biological target: T1, trypsin-like enzyme (Homo sapiens, UniProt O60235)
# T1 construct: from tissue; host or cells: cough phlegm (sputum) of patients with chronic disease of the respiratory tract
# T1 sequence (O60235 187-418): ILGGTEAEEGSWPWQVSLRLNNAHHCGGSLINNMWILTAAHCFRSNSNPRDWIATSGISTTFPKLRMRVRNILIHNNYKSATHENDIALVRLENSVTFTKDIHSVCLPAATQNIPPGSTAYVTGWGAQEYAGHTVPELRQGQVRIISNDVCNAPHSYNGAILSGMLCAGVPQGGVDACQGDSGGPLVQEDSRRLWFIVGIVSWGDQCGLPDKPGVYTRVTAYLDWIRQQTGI
# Test: Digestion of natural substrates detected by SDS-polyacrylamide gel electrophoresis
# Format: biochemical
substance,measurement,value
albumin: natural substrate,Digestion of natural substrate by trypsin-like enzyme,not digested; also recorded: does not digest

# — patent US5804410A, “Nucleic acid sequence encoding trypsin-like enzyme and process for producing the enzyme” (Teijin Limited, priority 1994, dated 1998)
